Molecular target: AKR1C3 (Homo sapiens (Human), UniProt P42330)
Experiment: S-tetralol oxidation assay, AKR1C3
Assay type: biochemical
Conditions: for Ratio IC50 value (AKR1C2/AKR1C3): selectivity for AKR1C3 over AKR1C2
Method: Enzymes were purified to constant specific activity and their purity established by SDS-PAGE. All AKR enzymes were stored at −80° C. in 20 mM potassium phosphate buffer pH 7.0 containing 30% glycerol, 1 mM EDTA, and 1 mM β-mercaptoethanol. […] The specific activities of AKR1C enzymes were determined by measuring the formation of NADH at 340 nm using a Beckman DU640 spectrophotometer. […] The mixtures were incubated at 25° C. (AKR1C1 and 1C4) or 37° C. (AKR1C2 and 1C3) for 3 min, followed by adding a serial dilution of enzyme solution to a final volume of 1 mL to initiate the reaction. After continuously monitoring for 5 min, the increase in UV absorption using different concentrations of enzyme were recorded to calculate the initial velocity of substrate oxidation and determine enzyme-specific activity.
Reagents were mixed and incubated at 37° C. for 10 min followed by adding AKR1C enzymes to initiate the reaction. […] To determine the pattern of inhibition, five fixed concentrations of S-tetralol were used and four different concentrations of inhibitor were used and a gobal fit of the equations for COMP, NONCOMP and UNCOMP to the data was applied using Grafit.

Chains of the proteins cited; added tags and fusions are not shown. Lines headed by an entry give the natural chain unless they say otherwise; changes in a name come on top.
UniProt P42330: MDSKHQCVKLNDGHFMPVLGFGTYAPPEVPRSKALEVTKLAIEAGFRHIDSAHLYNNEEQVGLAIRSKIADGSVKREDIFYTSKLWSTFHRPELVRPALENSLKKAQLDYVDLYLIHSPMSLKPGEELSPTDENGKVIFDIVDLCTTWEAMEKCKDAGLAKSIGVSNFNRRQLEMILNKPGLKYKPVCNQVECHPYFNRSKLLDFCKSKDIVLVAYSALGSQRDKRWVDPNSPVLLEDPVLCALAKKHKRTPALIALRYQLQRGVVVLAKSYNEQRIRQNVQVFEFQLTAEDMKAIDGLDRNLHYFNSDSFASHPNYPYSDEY

Row | Compound | selectivity for AKR1C3 over AKR1C2 (S-tetralol oxidation) [fold] | Ratio IC50 value (AKR1C2/AKR1C3) (Table 1) | IC50 (Table 2) [nM] | also measured
1 | CSc1ccc2cc([C@@H](C)C(=O)O)ccc2c1 [(R)-4a, 2(R)-(6-(methylthio)naphthalen-2-yl)propanoic acid] | 87 | 87 | – | –
2 | COc1ccc2cc([C@@H](C)C(=O)O)ccc2c1 [R-Naproxen (1a), reference compound] | – | – | 50 | IC50 (NADP+ dependent oxidation of S-tetralol, S-tetralol at Km, Table 1): 50 ± 4 nM; IC50 (S-tetralol oxidation): 50 nM
3 | CCOc1ccc2cc(C(C)C(=O)O)ccc2c1 (racemic) [LM5753(±) 3, 2-(6-Ethoxynaphthalen-2-yl)propanoic Acid] | – | 24 | – | –
4 | CCc1ccc2cc(C(C)C(=O)O)ccc2c1 (racemic) [LM5751(±) 2, 2-(6-Ethylnaphthalen-2-yl)propanoic Acid] | – | 15 | – | –
5 | CSc1ccc2cc(C(C)C(=O)O)ccc2c1 (racemic) [LM5752(±) 4, 2-(6-(Methylthio)naphthalen-2-yl)propanoic Acid] | 25 | 25 | – | –
6 | COc1ccc2cc([C@H](C)C(=O)O)ccc2c1 [S-Naproxen (1), (S)-2-(6-methoxynaphthalen-2-yl)propanoic acid, reference compound] | – | – | 180 | –

— patent US11459295B2, “2-beta-naphthyl-acetic acid analogs as AKR1C3 inhibitors and methods of using same” (THE TRUSTEES OF THE UNIVERSITY OF PENNSYLVANIA, priority 2015, dated 2022)
